1 compound from patent US10287530B2, “Surfactants based on monounsaturated fatty alcohol derivatives” (priority 2013, dated 2019) can be followed below.

A short description of the data set: Appearance and solubility of surfactants and of 1:1 molar blends with cationic surfactant. The class given is physicochemical. The note with it: cationic surfactant alone, ambient temperature. As to the method:
The surfactant blends tested are prepared at a 1:1 molar ratio without any pH adjustment. Dilutions are made using deionized water to the desired actives level. Actives amounts are wt. % unless indicated otherwise. Appearances are reported at ambient temperature for samples prepared within the last 24 h.

`CCCCCCCCCCCCCCCC[N+](C)(C)C.[Cl-]` [Ammonyx ® Cetac 30 (cetrimonium CI), cetrimonium CI]: the “Appearance, 0.1%” value (0.1% actives) was “clear liquid”. For the same compound, the “Appearance, 1.0%” value (1.0% actives) is listed as “clear liquid”.
